## Curated experimental data: properties

From the experimental data distributed with OPERA 2.9.

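The numbers are reported measurements, compiled and curated for the OPERA QSAR suite. One number stands for a compound and property, with no spread given. Method, purity and exact conditions of the single measurements are not given. Where a salt, mixture or single isomer is drawn, the source does not say that exactly this form was tested. Some entries may be limits or estimates that an upstream database listed as plain numbers.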

Melting points are in °C.
The boiling point refers to atmospheric pressure (760 mmHg), by the definition of the set.
The octanol-water partition coefficient is given as log10; larger values mean a more lipophilic compound.
Solubility in water is on a log10 molar scale (set defined at 25 °C).
Vapor pressures (log10 mmHg) refer to near room temperature, 15 to 30 °C; higher is more volatile.
The Henry's law constant is on a log10 scale in atm·m3/mol (set defined at 25 °C); higher favours air over water.
fu is the fraction unbound in human plasma, from 0 to 1.
Intrinsic clearance (human, µL/min per 10^6 hepatocytes): higher is faster turnover, and 0 stands for none detected.
"–" marks a cell with nothing listed here.

Listed for CCCCCCCCCCCC(=O)OC[C@H](O)[C@@H](O)[C@H](O)[C@H](O)CO: melting point 70.9 °C and log solubility -4.224 (log10 mol/L).
Listed for CC(C)(c1ccc(OCCO)cc1)c1ccc(OCCO)cc1: melting point 103.2 °C and log solubility -3.452 (log10 mol/L) and vapor pressure -8.454 (log10 mmHg).
Listed for C1COCCO1: fraction unbound 0.9398 and Clint 0.6904 µL/min/10^6 cells.
Listed for CCOC(=O)C(C)=CC(=O)OC: melting point -12 °C and BP 227.8 °C and log solubility -2.383 (log10 mol/L) and vapor pressure -1.324 (log10 mmHg).
Listed for CC(C)CN(C[C@@H](O)[C@@H](N)Cc1ccccc1)S(=O)(=O)c1ccc(N)cc1: melting point 138 °C and log solubility -3.929 (log10 mol/L) and vapor pressure -6.201 (log10 mmHg).
Listed for COc1ccc(C=C2N=C(c3ccc(C4=NC(=Cc5ccc(OC)cc5)C(=O)O4)cc3)OC2=O)cc1: melting point 296 °C and log solubility -6.984 (log10 mol/L).
Listed for Brc1cccc(Oc2cccc(Br)c2)c1: logP (octanol/water) 5.03 and vapor pressure -3.928 (log10 mmHg).
Listed for CC(C)(C1CCCO1)C1CCCO1 (centres undefined): logP (octanol/water) 2.7 and vapor pressure -1.536 (log10 mmHg).
Listed for CCCCCCCCCCCCCCCC(=O)NCCC[N+](C)(C)C.[Cl-]: melting point 80 °C and log solubility -3.25 (log10 mol/L).
Listed for O=c1n(CCCS)c(=O)n(CCCS)c(=O)n1CCCS: BP 360 °C and log solubility -3.768 (log10 mol/L).
Listed for CO[Si](CC(C)C)(OC)C(C)C: melting point -78 °C and logP (octanol/water) 5.1 and log solubility -4.024 (log10 mol/L) and vapor pressure 0.364 (log10 mmHg).
Listed for CC(C)C(=O)/C(=C/c1ccccc1)C(=O)Nc1ccccc1: melting point 139.8 °C and log solubility -4.45 (log10 mol/L).
Listed for CCCc1ccc(O)c(OC)c1: melting point -6 °C and logP (octanol/water) 2.8 and log solubility -2.179 (log10 mol/L) and vapor pressure -1.648 (log10 mmHg).
Listed for COC(=O)c1ccccc1N=NC(C)Cc1ccc(C(C)(C)C)cc1 (centres undefined): melting point 41.47 °C and logP (octanol/water) 4.4 and log solubility -5.547 (log10 mol/L) and vapor pressure -5.046 (log10 mmHg).
Listed for CCCCC(=O)OCC(=O)[C@H]1[C@H](C)C[C@H]2[C@@H]3C[C@H](F)C4=CC(=O)C=C[C@]4(C)[C@H]3[C@@H](O)C[C@@]21C: melting point 207 °C and logP (octanol/water) 4.23 and log solubility -6.487 (log10 mol/L).
Listed for BrCCCCCCCCCCBr: logP (octanol/water) 6.12 and vapor pressure -2.429 (log10 mmHg).
Listed for Cc1cc(C(=O)NCCc2ccc(S(=O)(=O)NC(=O)NN3CCCCCC3)cc2)no1: log solubility -3.64 (log10 mol/L) and fraction unbound 0.07.
Listed for O=C1OCCN1CCCO: logP (octanol/water) -1.22 and vapor pressure -4.673 (log10 mmHg).
Listed for F[P-](F)(F)(F)(F)F.F[P-](F)(F)(F)(F)F.c1ccc([S+](c2ccccc2)c2ccc(Sc3ccc([S+](c4ccccc4)c4ccccc4)cc3)cc2)cc1: melting point 237.5 °C and logP (octanol/water) 1 and log solubility -4.059 (log10 mol/L).
Listed for CCCCC(CC)C(=O)OCC(COC(=O)C(CC)CCCC)OC(=O)C(CC)CCCC (centres undefined): melting point -25.5 °C and log solubility -6.974 (log10 mol/L).
Listed for CCCCCCCC/C=C\CCCCCCCCCCCC(=O)NCCCCCCCCCCCCCCCCCC: melting point 72.6 °C and log solubility -7.421 (log10 mol/L) and vapor pressure -6.435 (log10 mmHg) and log Henry constant -3.113 (log10 atm·m3/mol).
Listed for CCCCCCC(CCCCCCCCCCC(=O)OCC(COC(=O)CCCCCCCCCCC(CCCCCC)OC(C)=O)OC(=O)CCCCCCCCCCC(CCCCCC)OC(C)=O)OC(C)=O (centres undefined): log solubility -8.986 (log10 mol/L) and vapor pressure -10.01 (log10 mmHg).
Listed for O=C1CCC(O)C2C3CCC(C3=C(Cl)Cl)C12 (centres undefined): melting point 150.9 °C and logP (octanol/water) 2.6 and log solubility -3.514 (log10 mol/L) and vapor pressure -5.122 (log10 mmHg).
Listed for C=C(C)c1cccc(C(=C)C)c1: melting point -42 °C and log solubility -4.451 (log10 mol/L) and vapor pressure -0.885 (log10 mmHg).
Listed for O=C1CCCN1CCO: logP (octanol/water) -1.03 and vapor pressure -3.569 (log10 mmHg).
Listed for O=S(=O)(Nc1ccc(O)cc1)c1ccccc1: melting point 154 °C and log solubility -2.494 (log10 mol/L) and vapor pressure -9.084 (log10 mmHg).
Listed for c1cnc2cc3c(cc2n1)[C@@H]1CNC[C@H]3C1: logP (octanol/water) 0.9 and fraction unbound 0.8.
Listed for CC(=O)N1CCOCC1: logP (octanol/water) -0.81 and vapor pressure -1.782 (log10 mmHg).
Listed for CC(C)CCC(C)(O)C#CC(C)(O)CCC(C)C (centres undefined): logP (octanol/water) 4.79 and log solubility -3.438 (log10 mol/L) and vapor pressure -3.417 (log10 mmHg).
Listed for CC(=O)On1ccccc1=O: BP 303 °C and vapor pressure -3.997 (log10 mmHg).
Listed for CCOC(=O)C(C)C(Br)CBr (centres undefined): logP (octanol/water) 3 and log solubility -2.868 (log10 mol/L) and vapor pressure -2.28 (log10 mmHg).
Listed for Cl.NC(CO)(CO)CO: logP (octanol/water) -3.6 and vapor pressure -6.56 (log10 mmHg).
Listed for C/C(=C\c1csc(C)n1)[C@@H]1C[C@@H]2O[C@]2(C)CCC[C@H](C)[C@H](O)[C@@H](C)C(=O)C(C)(C)[C@@H](O)CC(=O)N1: log solubility -5.158 (log10 mol/L) and fraction unbound 0.28.

Excerpt, the final 5 entries:

compound	melting point (°C)	BP (°C)	logP (octanol/water)	log solubility (log10 mol/L)	vapor pressure (log10 mmHg)	log Henry constant (log10 atm·m3/mol)	fraction unbound	Clint (µL/min/10^6 cells)
CC(C)CCC(C)(O)C#CC(C)(O)CCC(C)C (centres undefined)	–	–	4.79	-3.438	-3.417	–	–	–
CC(=O)On1ccccc1=O	–	303	–	–	-3.997	–	–	–
CCOC(=O)C(C)C(Br)CBr (centres undefined)	–	–	3	-2.868	-2.28	–	–	–
Cl.NC(CO)(CO)CO	–	–	-3.6	–	-6.56	–	–	–
C/C(=C\c1csc(C)n1)[C@@H]1C[C@@H]2O[C@]2(C)CCC[C@H](C)[C@H](O)[C@@H](C)C(=O)C(C)(C)[C@@H](O)CC(=O)N1	–	–	–	-5.158	–	–	0.28	–